Bioassay records (PubChem BioAssay)
GSIS activator: GLuc luminescence reporter in INS-1E cells, primary screen for activators of glucose-dependent secretion of insulin | INS-1E GLuc reporter insulin secretion, 2-3 h | AID 743287, 2014 | activation, % at 16.6 µM | hit rate 0.61% among 370,000;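 active = lowest replicate activation of at least 40%, so every replicate reaches that level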;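 note: 0% = median of neutral control wells and 100% = median of IBMX positive control wells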
SR-BI HDL uptake: inhibitors of SR-BI mediated HDL lipid uptake, primary screen, ldlA[mSR-BI] cells, fluorescence, single point | hit rate 0.96% among 320,000 | inhibition, % at 12.5 µM | Scavenger receptor class B member 1 (Mus musculus), Q61009 | ldlA[mSR-BI] CHO cells, DiI-HDL uptake fluorescence, 3 h;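 active = mean replicate inhibition of at least 70% and a set share of replicates each scoring 70 or more; inconclusive = meets just one of the two criteria; inactive = fails both criteria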;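 note: 0% = median of neutral control wells and 100% = median of positive control wells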
SR-BI DiI-HDL act: activators of SR-BI mediated DiI-HDL uptake, primary screen, ldlA[mSR-BI] CHO cells, DiI fluorescence; 3 h; 100 = double the neutral-control signal; activation, % at 12.5 µM; hit rate 0.096% among 320,000; AID 504775, 2011;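 active = mean replicate activation of at least 60% and every replicate at or above 60%; inconclusive = mean or all-replicate condition met, but not both; inactive = mean below 60% and not all replicates reaching 60%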;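 note: 0% = median plate neutral-control signal and 100% = twice that signal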
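system = CHO ldlA[mSR-BI] cells, LDL receptor-null, SR-BI overexpressing | medium = Ham's F12 with 0.5% BSA, HEPES 25 mM, pH 7.4 | probe or stimulus = DiI-HDL 10 µg/mL | compound dosing = single-point compound dose | incubation = compound exposure 3 h, 37 °C | technique = DiI fluorescence, bottom read | read-out = cell-associated DiI fluorescence as measure of HDL uptake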
UUG fidelity: alters start codon recognition fidelity in yeast. S. cerevisiae UUG-firefly luciferase reporter, luminescence/redox ratio. activity score, % at 18.7 µM. 0.13% of 350,000 active. AID 602363;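 active = replicate mean at a twofold rise or more, about +100% in these data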;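 also: firefly luciferase made from a UUG start codon reports start codon fidelity; reporter light over untreated wells divided by growth signal over untreated wells; some hits fall short of that in this replicate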
DiI quench: counter-screen for SR-BI lipid transfer inhibitors: DiI fluorescence quenchers. shares compounds with SR-BI HDL uptake. cell-free DiI-HDL fluorescence quenching, 30 min. AC50, µM (highest dose often 35 µM), without a hit: at the top dose activity change, negative = quenching. hit rate 20% among 470;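 active = quenching, a falling signal, with AC50 below a set limit tied to the top valid dose, actives reach about 32 µM in these data; inconclusive = no clear call, values can overlap the other calls; inactive = rising signal, and the rest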
* = called active by the depositor; ? = inconclusive; · = no result given; ! = repeats disagree. In the library only some 1.3% were active in any assay of this set; here they are far more common.

SMILES	GSIS activator	SR-BI HDL uptake	SR-BI DiI-HDL act	UUG fidelity	DiI quench
CCOc1ccccc1NC(=O)N1C2CCCC1CC(NC(=O)C1CC1)C2 (stereo unspecified)	·	7.1	-7.1	·	-0.5%
CCOC(=O)c1c(Nc2nc(C)c(C(=O)NC)s2)sc(C)c1C	·	93.3*	-93.3	·	-13.5%
CCOC(=O)c1sc(Nc2ccccc2)nc1C	17.3	22.0	-22.0	-2.7	·
CN1C(=O)C(O)(C2COC(C)(C)CC2=O)c2ccccc21 (stereo unspecified)	1.4	·	·	-8.1	·
COc1ccc2c(c1)CC(C1(O)C(=O)N(C)c3ccccc31)C2=O (stereo unspecified)	·	84.8*	-84.8	-11.8	-4.7%
CNc1cnn(-c2ccc(C)cc2)c(=O)c1Sc1ccc(C)cc1	·	70.0*	-70.0	·	1.1%
CCC(=O)N1CCN(c2nc(CC)nc3sc4c(c23)CCCC4)CC1	6.1	26.4	-26.4	3.6	·
CCc1nc(N2CCN(C(=S)NCCCOC)CC2)c2c3c(sc2n1)CCCC3	·	88.1*	-88.1	-28.5	0.4%
CC(=O)c1c(C)[nH]c(C(=O)OCc2nc3ccsc3c(=O)[nH]2)c1C	9.3	71.1*	-71.1	-15.3	-6.0%
COCCN(C(=O)COC(=O)c1ccccc1Nc1ccccc1)c1c(N)n(Cc2ccccc2)c(=O)[nH]c1=O	4.6	74.1*	-74.1	·	3.8%

Part of the list above in a different format.
| SMILES | GSIS activator | SR-BI HDL uptake | SR-BI DiI-HDL act | UUG fidelity | DiI quench |
| --- | --- | --- | --- | --- | --- |
| COc1ccc2c(c1)CC(C1(O)C(=O)N(C)c3ccccc31)C2=O (stereo unspecified) | · | 84.8* | -84.8 | -11.8 | -4.7% |
| CCC(=O)N1CCN(c2nc(CC)nc3sc4c(c23)CCCC4)CC1 | 6.1 | 26.4 | -26.4 | 3.6 | · |
| CCc1nc(N2CCN(C(=S)NCCCOC)CC2)c2c3c(sc2n1)CCCC3 | · | 88.1* | -88.1 | -28.5 | 0.4% |
| CCOc1ccccc1NC(=O)N1C2CCCC1CC(NC(=O)C1CC1)C2 (stereo unspecified) | · | 7.1 | -7.1 | · | -0.5% |
| CCOC(=O)c1c(Nc2nc(C)c(C(=O)NC)s2)sc(C)c1C | · | 93.3* | -93.3 | · | -13.5% |
| CCOC(=O)c1sc(Nc2ccccc2)nc1C | 17.3 | 22.0 | -22.0 | -2.7 | · |

Following part.
SMILES	GSIS activator	SR-BI HDL uptake	SR-BI DiI-HDL act	UUG fidelity	DiI quench
O=C(Nc1ccc(N2CCOCC2)cc1)c1cc2c(s1)CCCC2	9.4	100.4*	-100.4	·	16.5µM*
Cc1cc(N2CCN(C(=O)c3ccco3)CC2)n2ncc(-c3ccccc3)c2n1	·	78.3*	-78.3	-19.7	-9.5%
Cc1cc(N2CCN(C(=O)c3ccco3)CC2)n2ncnc2n1	·	-8.7	8.7	·	·
CCC(C)n1ncn(-c2ccc(N3CCN(c4ccc(OCC5COC(Cn6cncn6)(c6ccc(Cl)cc6Cl)O5)cc4)CC3)cc2)c1=O (stereo unspecified)	5.0	83.0*!	-83.0	4.4	-11.2%
CCC(C)n1ncn(-c2ccc(N3CCN(c4ccc(O)cc4)CC3)cc2)c1=O (stereo unspecified)	·	21.5	-21.5	·	·
CCOCCOC(=O)c1[nH]c2c(c1C)C(=O)CC(c1cccs1)C2 (stereo unspecified)	28.3	75.2*	-75.2	-12.7	-1.3%
CCOCCOC(=O)c1[nH]c2c(c1C)C(=O)CC(c1ccccc1)C2 (stereo unspecified)	-24.0	51.1	-51.1	14.0	·
CCCCCOC(=O)c1[nH]c2c(c1C)C(=O)CC(c1ccco1)C2 (stereo unspecified)	·	79.6*	-79.6	-6.4	-4.6%
CCOC(=O)c1[nH]c2c(c1C)C(=O)CC(c1ccc(F)cc1)C2 (stereo unspecified)	-1.4	?	-71.6	-11.7	-2.9%
CCC(=O)N(C)C[C@H]1Oc2cc(C3=CCCCC3)ccc2S(=O)(=O)N([C@@H](C)CO)C[C@@H]1C	2.5	·	·	·	·
CCCN1C[C@@H](C)[C@H](OC)CN(C)C(=O)c2cc(NC(=O)C3CC3)ccc2OC[C@@H]1C	7.3	·	·	4.8	·
CCCNC(=O)N1CC2(CCN(C(=O)CN(C)C)CC2)c2c(n(C)c3cc(OC)ccc23)[C@@H]1CO	11.7	·	·	·	·
CCNC(=O)C[C@@H]1CC[C@H]2[C@@H](COc3ccc(NC(=O)C4CCOCC4)cc3C(=O)N2C)O1	-0.1	·	·	-1.6	·
N#CCCN(C(=O)COC(=O)CCc1c[nH]c2ccccc12)c1ccc(F)cc1	-11.8	-15.8	15.8	-9.0	-12.7%
CCS(=O)(=O)NCC[C@H]1CC[C@H](NC(=O)C2CC2)[C@@H](CO)O1	1.2	·	·	·	·
O=C(Nc1ccc(-c2nc3ccccc3o2)cc1)c1cc(-n2cnnc2)ccc1Cl	·	?	-73.4	-19.3	8.1%
O=C(Nc1ccc2oc(-c3ccccc3)nc2c1)c1cc(-n2cnnc2)ccc1Cl	12.1	67.8	-67.8	·	·
CC(=O)Nc1nc(-c2ccc3c(c2)CC(C)N3C(=O)C2CC2)c(C)s1 (stereo unspecified)	-2.2	·	·	-21.7	·
CCOC(=O)C(=O)Nc1nc(-c2ccc3c(c2)CCN3C(=O)C2CC2)c(C)s1	21.1	56.1	-56.1	-5.3	-10.9%
CCOC(=O)Nc1ccc2c(c1)N(C(=O)C(C)N1CCCC1)c1ccccc1CC2 (stereo unspecified)	·	-16.3	16.3	·	-0.8%
COc1ccc(NC(=O)Nc2ccc3c(c2)C(=O)N([C@@H](C)CO)C[C@@H](C)[C@H](CN(C)S(=O)(=O)c2c(C)noc2C)OCCCC[C@H](C)O3)cc1	3.1	·	·	5.1	·
CN(C)S(=O)(=O)N1CCN(C(=O)N(c2ccccc2)c2ccccc2)CC1	·	?	-70.3	13.7	-1.9%
CCc1cc2c(=O)c(-c3ccc4c(c3)OCCO4)coc2cc1OS(C)(=O)=O	-5.5	74.6*	-74.6	-5.3	-0.6%
CCc1cc2c(=O)c(-c3ccc4c(c3)OCCO4)coc2c(CN2CCCCC2C)c1O (stereo unspecified)	0.3	56.5	-50.0	-7.3	·
COc1ccc(C2/C=C\CN(S(=O)(=O)c3ccc(C)cc3)[C@H](Cc3ccccc3)C(=O)N2Cc2ccc(F)cc2)cc1 (stereo partly specified)	·	16.3	-16.3	-26.6	·
COc1ccc(C2/C=C\CN(S(=O)(=O)c3ccc(-c4ccccc4)cc3)CC(=O)N2Cc2ccc(F)cc2)cc1 (stereo unspecified)	·	81.2*	-81.2	-17.6	-5.2%
Cc1ccccc1-c1ccc([C@H]2[C@@H](CO)N3C(=O)CN(C(=O)Nc4ccc(F)cc4)C[C@@H]23)cc1	-13.7	·	·	·	·
O=C(Cc1cccs1)NCCSc1c(-c2ccc(Cl)cc2)[nH]c2ccccc12	8.6	?	-70.1	-3.2	-16.6%
CCOC(=O)CSc1c(-c2ccc(Cl)cc2)[nH]c2ccccc12	-25.8	75.4*	-75.4	-8.5	-11.6%
Cc1ccc(-c2[nH]c3ccccc3c2SCCNC(=O)c2cc3ccccc3oc2=O)cc1	·	22.3	-22.3	-16.4	·
CCOC(=O)CSc1c(-c2cccs2)[nH]c2ccccc12	-22.1	44.9	-44.9	2.2	·
CCC(=O)Nc1ccc2c(c1)C(=O)N(C)[C@@H]1CC[C@@H](CC(=O)NCc3ccccc3)O[C@@H]1CO2	-3.3	·	·	-20.1	·
CC(=O)Nc1ccc(S(=O)(=O)Nc2cc(C)c(-n3nc4ccccc4n3)cc2O)cc1	·	92.9*	-92.9	0.1	9.6µM*
CO[C@H]1CN(C)C(=O)c2ccc(NC(C)=O)cc2OC[C@@H](C)N(C(=O)c2ccncc2)C[C@H]1C	-0.3	·	·	8.6	·
COc1ccc(C2c3sc(=O)[nH]c3SC3C4CCC(C4)C23)cc1OC (stereo unspecified)	·	?	-71.6	1.3	-9.4%
CCC(=O)N1C[C@@H](C)[C@H](OC)CN(C)C(=O)c2cc(NC(=O)NC(C)C)ccc2OC[C@H]1C	6.9	·	·	0.7	·
